# Source: US20210379067A1 (iOmx Therapeutics AG, priority 2018, published 2021)
# Amino acid sequences for entries named in this document (tags omitted). Residues count along the entry.
# UniProt Q62371, 22-854: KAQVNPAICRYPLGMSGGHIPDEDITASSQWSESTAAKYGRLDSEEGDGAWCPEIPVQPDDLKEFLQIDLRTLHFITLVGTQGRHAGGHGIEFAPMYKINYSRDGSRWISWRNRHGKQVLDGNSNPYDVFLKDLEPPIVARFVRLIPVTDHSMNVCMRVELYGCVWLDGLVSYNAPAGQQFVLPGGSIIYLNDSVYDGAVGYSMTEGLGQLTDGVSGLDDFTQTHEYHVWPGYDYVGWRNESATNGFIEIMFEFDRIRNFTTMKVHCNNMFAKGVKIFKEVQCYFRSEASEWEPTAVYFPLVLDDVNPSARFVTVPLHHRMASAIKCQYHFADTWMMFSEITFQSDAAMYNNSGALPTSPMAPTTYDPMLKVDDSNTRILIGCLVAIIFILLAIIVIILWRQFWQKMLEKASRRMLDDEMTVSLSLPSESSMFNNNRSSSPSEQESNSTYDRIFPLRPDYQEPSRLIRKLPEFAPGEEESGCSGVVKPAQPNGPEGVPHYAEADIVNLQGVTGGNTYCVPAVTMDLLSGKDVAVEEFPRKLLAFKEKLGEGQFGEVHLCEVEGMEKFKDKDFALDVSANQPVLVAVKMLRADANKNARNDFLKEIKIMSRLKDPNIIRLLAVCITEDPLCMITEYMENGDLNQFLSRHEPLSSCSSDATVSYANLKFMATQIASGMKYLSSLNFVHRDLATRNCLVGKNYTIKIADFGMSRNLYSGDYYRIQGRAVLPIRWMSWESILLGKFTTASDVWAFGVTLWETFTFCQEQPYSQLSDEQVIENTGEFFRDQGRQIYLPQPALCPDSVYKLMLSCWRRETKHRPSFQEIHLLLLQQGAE
# UniProt P36888, 27-993: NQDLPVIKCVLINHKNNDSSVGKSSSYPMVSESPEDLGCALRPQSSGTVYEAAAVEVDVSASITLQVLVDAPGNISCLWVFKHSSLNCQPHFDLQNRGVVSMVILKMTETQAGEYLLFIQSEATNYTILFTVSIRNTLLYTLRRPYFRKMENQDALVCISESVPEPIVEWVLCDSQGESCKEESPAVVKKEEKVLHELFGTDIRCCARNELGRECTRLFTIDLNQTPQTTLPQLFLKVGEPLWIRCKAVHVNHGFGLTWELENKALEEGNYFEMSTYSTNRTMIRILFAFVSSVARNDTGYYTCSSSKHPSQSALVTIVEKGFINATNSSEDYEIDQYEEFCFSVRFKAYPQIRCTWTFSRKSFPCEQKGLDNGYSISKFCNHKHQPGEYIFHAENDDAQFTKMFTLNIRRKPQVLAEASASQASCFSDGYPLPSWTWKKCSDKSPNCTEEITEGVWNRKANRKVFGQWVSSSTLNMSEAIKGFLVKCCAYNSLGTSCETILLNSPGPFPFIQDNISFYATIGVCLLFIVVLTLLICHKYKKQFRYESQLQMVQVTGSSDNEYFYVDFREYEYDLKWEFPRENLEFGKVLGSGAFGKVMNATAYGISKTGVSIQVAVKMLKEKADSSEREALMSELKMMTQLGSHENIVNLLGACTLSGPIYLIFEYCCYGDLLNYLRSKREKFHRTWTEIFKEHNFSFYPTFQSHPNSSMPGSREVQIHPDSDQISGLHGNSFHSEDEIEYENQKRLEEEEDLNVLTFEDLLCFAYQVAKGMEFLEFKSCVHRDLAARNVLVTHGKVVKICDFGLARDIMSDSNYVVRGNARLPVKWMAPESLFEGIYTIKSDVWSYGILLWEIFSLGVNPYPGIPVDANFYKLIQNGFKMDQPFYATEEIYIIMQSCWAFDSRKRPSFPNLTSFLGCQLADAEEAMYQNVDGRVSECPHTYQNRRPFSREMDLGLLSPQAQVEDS
# Columns and labels:
# DDR2 = DDR2 (Mus musculus, UniProt Q62371); details: multiple tumour models; combination; cited from earlier work
# FLT3 = biological target: T1, FLT3 (Homo sapiens, UniProt P36888); experiment: Kinase Profiler single-point (1 uM) inhibition; format: biochemical
# T1 construct: purchased ProQinase
# EPH-A6 = biological target: T2, EPH-A6 (Homo sapiens, UniProt Q9UF33); experiment: Kinase Profiler single-point (1 uM) inhibition; format: biochemical
# T2 sequence (Q9UF33 23-1036): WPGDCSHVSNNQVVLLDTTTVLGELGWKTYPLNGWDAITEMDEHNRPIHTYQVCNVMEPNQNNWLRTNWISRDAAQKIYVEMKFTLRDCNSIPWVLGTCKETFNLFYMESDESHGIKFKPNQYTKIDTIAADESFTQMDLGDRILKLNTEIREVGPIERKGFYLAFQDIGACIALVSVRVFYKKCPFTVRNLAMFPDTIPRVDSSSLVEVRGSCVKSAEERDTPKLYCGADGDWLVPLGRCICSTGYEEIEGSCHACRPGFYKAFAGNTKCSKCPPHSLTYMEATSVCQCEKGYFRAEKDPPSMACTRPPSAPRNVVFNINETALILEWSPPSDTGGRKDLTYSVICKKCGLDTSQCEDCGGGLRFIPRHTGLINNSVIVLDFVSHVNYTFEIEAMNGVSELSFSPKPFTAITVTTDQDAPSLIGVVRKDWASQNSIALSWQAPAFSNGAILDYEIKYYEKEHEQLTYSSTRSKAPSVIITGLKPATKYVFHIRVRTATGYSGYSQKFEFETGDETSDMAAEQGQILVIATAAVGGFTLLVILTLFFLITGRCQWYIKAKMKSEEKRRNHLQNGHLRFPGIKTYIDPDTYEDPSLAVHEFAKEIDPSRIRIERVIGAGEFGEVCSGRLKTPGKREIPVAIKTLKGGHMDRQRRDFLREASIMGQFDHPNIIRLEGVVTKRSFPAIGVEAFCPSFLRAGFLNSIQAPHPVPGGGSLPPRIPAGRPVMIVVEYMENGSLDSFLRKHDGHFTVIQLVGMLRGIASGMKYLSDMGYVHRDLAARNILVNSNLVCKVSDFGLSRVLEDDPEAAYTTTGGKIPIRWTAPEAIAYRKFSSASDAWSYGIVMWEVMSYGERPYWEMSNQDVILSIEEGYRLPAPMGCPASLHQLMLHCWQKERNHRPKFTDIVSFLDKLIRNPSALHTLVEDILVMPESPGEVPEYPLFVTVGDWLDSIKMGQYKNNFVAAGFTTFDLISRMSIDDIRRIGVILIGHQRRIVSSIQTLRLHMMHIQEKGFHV
compound,measurement,setting,value
"Cc1nc(Nc2ncc(C(=O)Nc3c(C)cccc3Cl)s2)cc(N2CCN(CCO)CC2)n1 [Compound A8, N-(2-chloro-6-methylphenyl)-2-((6-(4-(2-hydroxyethyl)piperazin-1-yl)-2-methylpyrimidin-4-yl)amino)thiazole-5-carboxamide]",response to immune checkpoint blockade with PD1 inhibitors,DDR2,significantly enhanced response
"Cc1nc(Nc2ncc(C(=O)Nc3c(Cl)ccnc3C)s2)cc(N2CCN(CCO)CC2)n1 [Compound B3, N-(4-chloro-2-methylpyridin-3-yl)-2-((6-(4-(2-hydroxyethyl)piperazin-1-yl)-2-methylpyrimidin-4-yl)amino)thiazole-5-carboxamide]",Residual activity (%) at 1 uM,FLT3,32%
same,Residual activity (%) at 1 uM,EPH-A6,86%
